In the assay the test system is primary MCL cells. The experiment in a line: Apoptosis in freshly isolated primary MCL cells with or without depsipeptide pre-treatment. It is filed as cell-based, human. To be noted: pre-treatment 16 h with depsipeptide (5 nM), depsipeptide alone 35.4±5%. How it is done: Ramos, an Epstein-Barr virus-negative Burkitt's lymphoma cell line, and Jurkat T cells (clone E6-1) were cultured as described (MacFarlane et al (2005 Cell Death and Differentiation vol 12 pages 773-782)). Blood samples were obtained from CLL patients, with patient consent and local ethical committee approval and CLL cells purified as described (MacFarlane et al (2002 Oncogene 21, 6809-6818). Cells were incubated for 16 h with depsipeptide (10 nM), provided by Dr. E. Sausville (NCI, USA). Cells were then cultured for a further 6 h with either HGSETR1 or HGS-ETR2, agonistic mAbs to TRAIL-R1 or -R2, respectively (Human Genome Sciences, Rockville, Md.), His-TRAIL-LE (a recombinant TRAIL with low endotoxin—Alexis Corporation, Nottingham, UK), His-TRAIL, a similar form of human recombinant TRAIL (MacFarlane et al (1997 J Biol Chem 272, 25417-25420)) but not further purified to reduce endotoxin levels or a mutant form of His-TRAIL as described (MacFarlane et al., 2005 ibid.). […] Samples were either analyzed immediately for apoptosis or stored at −80° C. for subsequent Western blotting. […]
Apoptosis was quantified by phosphatidylserine (PS) externalization in the presence of propidium iodide as described (MacFarlane et al., 2002 ibid.). Samples for Western blot analysis were prepared and caspase processing detected as described (Inoue et al., 2004 ibid.; MacFarlane et al., 2005 ibid.). […]

B1: TRAIL.R2-6: His-TRAIL (95-281) with 189Gln, 191Lys, 193Arg, 264Arg, 266Leu, 267Gln; TRAIL-R2 selective mutant (protein)
chain: TSEETISTVQEKQQNISPLVRERGPQRVAAHITGTRGRSNTLSSPNSKNEKALGRKINSWESSRSGHSFLSNLHLRNGELVIHEKGFYYIYSQTQFKFREEIKENTKNDKQMVQYIYKYTSYPDPILLMKSARNSCWSKDAEYGLYSIYQGGIFELKENDRIFVSVTNERLLQMDHEASFFGAFLVG
modifications: biotin (site not stated) in the DISC analysis only; not biotinylated in the apoptosis assays
Regarding B1, the “apoptosis, ligand or antibody after depsipeptide pre-treatment” value came out at 35.5±3.1%.
